# Data taken from ChEMBL document CHEMBL1148280, “Design, synthesis, structural studies, biological evaluation, and computational simulations of novel potent AT(1) angiotensin II receptor antagonists based on the 4-phenylquinoline structure” (J Med Chem, 2004).
# By UniProt entry, the sequences of proteins in these tests, tags left out.
# UniProt P29089, whole entry: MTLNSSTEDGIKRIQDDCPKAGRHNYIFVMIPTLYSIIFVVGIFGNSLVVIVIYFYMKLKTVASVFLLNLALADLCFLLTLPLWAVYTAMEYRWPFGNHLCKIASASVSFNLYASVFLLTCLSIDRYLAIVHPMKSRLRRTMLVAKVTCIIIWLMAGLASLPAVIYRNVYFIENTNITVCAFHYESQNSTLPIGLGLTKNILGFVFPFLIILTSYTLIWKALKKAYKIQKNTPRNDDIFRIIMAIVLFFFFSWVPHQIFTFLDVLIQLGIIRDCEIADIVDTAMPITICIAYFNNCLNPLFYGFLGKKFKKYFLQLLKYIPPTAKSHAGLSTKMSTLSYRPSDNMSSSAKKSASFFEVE
# Biological target: Type-1 angiotensin II receptor B (Rattus norvegicus, UniProt P29089)
# Assay: Binding affinity for rat angiotensin II receptor, type 1
compound,measurement,value
CCCc1nc2c(C)cc(C)nc2n1Cc1ccc(-c2c(C(=O)O)cnc3ccccc23)cc1,IC50,11 nM
